## scFv variants of Ab-91 (heavy chain) against a SARS-CoV-2 spike peptide

The target is the same throughout: PDVDLGDISGINAS, from the HR2 region of SARS-CoV-2 spike.

Each scFv is VL, the linker GGGGSGGGGSGGGGS, VH, as in the parent Ab-91, and differs from it in the CDRs of the heavy chain only.
VL: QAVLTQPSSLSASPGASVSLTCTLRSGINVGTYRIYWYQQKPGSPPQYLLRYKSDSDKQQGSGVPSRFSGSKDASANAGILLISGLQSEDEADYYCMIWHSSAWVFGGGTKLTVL
VH: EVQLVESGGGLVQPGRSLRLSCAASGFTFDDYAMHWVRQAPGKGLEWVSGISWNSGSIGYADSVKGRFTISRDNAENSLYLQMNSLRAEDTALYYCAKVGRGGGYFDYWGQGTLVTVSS

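Library AAYL51 holds single substitutions and randomly drawn double and triple substitutions in the CDRs. The assay is AlphaSeq: two haploid yeast populations carry antibody and antigen on their surface. Binding brings cells together so that they mate, and sequencing counts the barcode pairs among the diploids. Scores were corrected for input abundance and mapped to Kd with protein pairs of known affinity run in the same pool. The assay was run in three technical replicates.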

Changes read parent residue, position, new residue, counted from the first residue of the VH shown.
The Kd shown is the geometric mean over detected replicates; a lower Kd is a better binder.
"no signal" marks a missing value. The strain was present, yet no cells mated with the target were sequenced in any replicate, which points to weak or no binding.
Entries are sorted by rising average, undetected variants last.
Three control strains display no target. For library AAYL51, 21% of the pairings with them gave a signal, with a median of 34 µM and one signal in twenty below 1.8 µM, so weak values seen in few replicates may be background.
In this assay the parent's reference entry averaged 72 nM; its copy inside this library read 7.5 nM.

changes	Kd	replicates with signal
F29P V64F Y108W	9.8 nM	3/3
D31E G103P	13 nM	3/3
D30P S55G R101G	37 nM	3/3
D31K N54G S55T	240 nM	3/3
Y60F Y105D	290 nM	3/3
F29S G103Q Y108M	540 nM	1/3
I58K A61E Y105W	1.9 µM	2/3
N54M D62M	15 µM	1/3
M34E I51A G104W	15 µM	3/3
Y32N G59Q	17 µM	1/3
F27G I58G G59P	27 µM	1/3
F27P W53T K65L	32 µM	1/3
D31E G56V Y60D	35 µM	3/3
Y32P N54T G102K	42 µM	1/3
A61P V64M K65A	50 µM	1/3
S55I G100R F106P	51 µM	1/3
S63H G104Y D107L	59 µM	3/3
F27N Y32G G50D	61 µM	2/3
G26Y G56W D107L	77 µM	1/3
G50P I58D Y105M	88 µM	3/3
D30K N54D G59H	95 µM	3/3
N54G Y60W G103E	100 µM	1/3
A33Y G56I G100R	120 µM	2/3
D31N M34R W53H	150 µM	3/3
I51W S55L	160 µM	2/3
T28Q S52C N54R	200 µM	1/3
G50Y S55T G104I	230 µM	3/3
F27L S57M G104S	650 µM	1/3
S52P N54S G56Q	980 µM	1/3
F27Q Y32F R101Y	no signal	0/3
S57Q G100W G104N	no signal	0/3
I58C S63G	no signal	0/3
A61K R101L Y108N	no signal	0/3
H35Y Y60C	no signal	0/3
T28Q I58C	no signal	0/3
I58W Y60E D107I	no signal	0/3
A61Q V64L K65E	no signal	0/3
T28R D30N I51R	no signal	0/3
A33Q G50W F106A	no signal	0/3
F29C S57G Y108F	no signal	0/3
W53F S57K Y105W	no signal	0/3
D30H S55T F106Y	no signal	0/3
S52Y N54R Y105L	no signal	0/3
G26D A33V Y108Q	no signal	0/3
N54F V64E R101N	no signal	0/3
T28Q A61K G104M	no signal	0/3
D30I G50I R101M	no signal	0/3

The 8 strongest on average among those seen in every replicate, once more:

| changes | Kd | replicates with signal |
|---|---|---|
| F29P V64F Y108W | 9.8 nM | 3/3 |
| D31E G103P | 13 nM | 3/3 |
| D30P S55G R101G | 37 nM | 3/3 |
| D31K N54G S55T | 240 nM | 3/3 |
| Y60F Y105D | 290 nM | 3/3 |
| M34E I51A G104W | 15 µM | 3/3 |
| D31E G56V Y60D | 35 µM | 3/3 |
| S63H G104Y D107L | 59 µM | 3/3 |

The measurements come from Engelhart et al. 2022 (doi:10.1038/s41597-022-01779-4) through the FLAb antibody collection.